These results are taken from patent US20250388560A1, “AROMATIC COMPOUND AND USE THEREOF” (HITGEN INC., priority 2023, published 2025).

Sequences of proteins named here, by UniProt entry; tags and fusion partners are left off.
UniProt P19474, whole entry: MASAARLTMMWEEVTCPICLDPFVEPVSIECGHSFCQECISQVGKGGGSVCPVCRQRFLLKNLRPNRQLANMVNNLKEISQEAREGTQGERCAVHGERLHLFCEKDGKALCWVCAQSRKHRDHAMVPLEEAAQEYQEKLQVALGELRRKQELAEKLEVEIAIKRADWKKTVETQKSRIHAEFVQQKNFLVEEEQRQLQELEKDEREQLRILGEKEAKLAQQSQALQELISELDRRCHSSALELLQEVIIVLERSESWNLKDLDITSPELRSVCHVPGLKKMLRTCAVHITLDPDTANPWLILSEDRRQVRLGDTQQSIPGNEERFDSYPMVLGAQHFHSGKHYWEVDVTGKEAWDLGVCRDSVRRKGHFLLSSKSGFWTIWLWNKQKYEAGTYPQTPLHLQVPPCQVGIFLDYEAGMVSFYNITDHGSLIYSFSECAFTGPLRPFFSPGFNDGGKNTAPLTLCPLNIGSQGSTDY

Where only a bound is given, the exact number is not on record here.

In general, Kd refers to the free concentration of one partner at which half of the binding sites on the other are occupied at equilibrium, for simple one-to-one binding.

The test deals with TRIM21 protein (Homo sapiens (Human), UniProt P19474). In words: SPR binding assay (Biacore 8K) of compounds to immobilised TRIM21 protein. The note with it: read-out: TRIM21 Kd Test Value, 25° C., steady state affinity model (1:1 binding model). On the technique in general: SPR reads the build-up and loss of mass on a sensor chip optically.

Consider `CN(CC1CCCCC1)C(=O)c1ccc(C2CCCCC2)cc1S(C)(=O)=O`, for which the Kd was greater than 10 µM.
